Measurements from publication PMC12363935, “Unc-51 Like Kinase 3 (ULK3) is essential for autophagy and cell survival in multiple myeloma” (Research Square, 2025).

Tested on: primary CD138+ MM cells
Assay: EMMA ex vivo platform, live cell imaging, 96 hours, collagen matrix with bone marrow stroma and patient plasma
Assay type: cell-based
Set-up: scale not given here
Settings: Pt885, NDMM
Description: For clinical robustness, we tested the activity of MA9 in MM patient samples using our ex vivo mathematical myeloma advisor (EMMA) platform (Supplementary Table 1). […]
For these assays, we used a novel EMMA platform developed at Moffitt. Further details are included in the supplemental Materials. […]
400 Ex vivo drug sensitivity characterization
401 An ex vivo assay was used to quantify the chemosensitivity of primary MM cells. Fresh BM
402 aspirate cells were enriched for CD138+ expression using Miltenyi (Bergisch Gladbach, Germany)
MM cells (CD138+) were seeded in Corning
404 Cell BIND 384 well plates (Corning, NY) with collagen I and previously established human-
407 inactivated), penicillin/streptomycin, and patient-derived plasma (10%, freshly obtained from
409 added using a robotic plate handler so that every drug/combination was tested at 5 (fixed
410 concentration ratio, for combinations) concentrations (1:3 serial dilution) in two replicates.
411 Negative controls (supplemented growth media with and without the vehicle control dimethyl
412 sulfoxide [DMSO]) were included, as well as positive controls for each drug (cell line MM1.S at
413 highest drug concentration). Plates were placed in a motorized stage microscope (EVOS Auto FL,
414 Life Technologies, Carlsbad, CA) equipped with an incubator and maintained at 5% CO2 and 37
415 °C. […]
Digital image analysis computes the percent […]

Molecule CC(C)C[C@H](NC(=O)[C@H](Cc1ccccc1)NC(=O)c1cnccn1)B(O)O [BTZ, bortezomib] has an AUC of 54.295.
